Molecular target: human recombinant thioredoxin (Homo sapiens (Human), UniProt P10599)
Assay: Thioredoxin activity, insulin reduction / DTNB assay with recombinant enzymes
Assay type: biochemical
Conditions: for IC50: 37° C., 30 min, 0.25 μM thioredoxin, 0.325 μM thioredoxin reductase, read-out: IC50 of thioredoxin inhibition; for thioredoxin IC50, times lower than for PX-12: ratio to PX-12
Protocol: The method of determining thioredoxin activity is based on the reduction of insulin by thioredoxin. Thioredoxin is reconstituted is by thioredoxin reductase, with NADPH. The resulting free thiol —SH groups react with 5,5′-dithiobis-2-nitrobenzoic acid (DTNB). The termination of the reaction results in the formation of a […] colour. The intensity of colouration is determined spectrophotometrically at 412 nm and this corresponds to the number of reduced sulfahydryl groups. The reaction was performed at 37° C. over 30 min. in a buffer containing 50 mM Tris-HCl and 20 mM EDTA at a pH of 7.6. The substrate concentrations used were: 0.25 μM human recombinant thioredoxin and 0.325 μM rat recombinant thioredoxin reductase (IMCO Corporation Ltd AB, Sweden) and 316 μM of insulin, 0.8 μM NADPH, 8 mM DTNB (Sigma Aldrich).

Amino acid sequences for entries named in this document (tags omitted). A change or cut given only in a name is not applied to a line headed by its entry.
UniProt P10599: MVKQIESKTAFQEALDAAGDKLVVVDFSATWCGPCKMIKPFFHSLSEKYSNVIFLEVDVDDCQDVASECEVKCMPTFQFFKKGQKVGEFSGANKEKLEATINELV

SMILES | IC50 | selectivity as thioredoxin inhibitor in comparison to PX-12 (from Tables 1, 2 and 3) | thioredoxin IC50, times lower than for PX-12
C=C(COC(=O)c1c(C(F)(F)F)cccc1C(F)(F)F)C(=O)NC(CC(C)C)C(=O)NCC(=O)OCC (racemic) [Compound 3a, 2-((1-((2-ethoxy-2-oxoethyl)amino)-4-methyl-1-oxopentan-2-yl)carbamoyl)allyl 2,6-bis(trifluoromethyl)benzoate] | 3.2 µM | considerably more selective | about 5 times
C=C(COC(=O)c1c(C(F)(F)F)cccc1C(F)(F)F)C(=O)N[C@H](CC(C)C)C(=O)NCC(=O)OCC [Compound D-3a, (R)-2-((1-((2-ethoxy-2-oxoethyl)amino)-4-methyl-1-oxopentan-2-yl)carbamoyl)allyl 2,6-bis(trifluoromethyl)benzoate] | 3.5 µM | – | about 5 times
C=C(COC(=O)c1c(C(F)(F)F)cccc1C(F)(F)F)C(=O)N[C@@H](CC(C)C)C(=O)NCC(=O)OCC [Compound L-3a, (S)-2-((1-((2-ethoxy-2-oxoethyl)amino)-4-methyl-1-oxopentan-2-yl)carbamoilo)allyl 2,6-bis(trifluoromethyl)benzoate] | 2.8 µM | – | about 5 times

Reference: US9018255B2, “Esters of (acyloxymethyl)acrylamide, a pharmaceutical composition containing them, and their use as inhibitors of the thioredoxin—thioredoxin reductase system” (Instytut Chemii Organicznej Polskiej Akademii Nauk, priority 2010, dated 2015)
